Among the data in ChEMBL document CHEMBL5120935, “Synthesis, Anti-Plasmodial Activities, and Mechanistic Insights of 4-Aminoquinoline-Triazolopyrimidine Hybrids” (ACS Med Chem Lett, 2022) are log K values, retold here.

For experiment [1], the species on record is Homo sapiens.
The species named for experiment [2] is Homo sapiens. This is another data set of the same source.

For `Cc1cc(NCCCCCCCCNc2ccnc3cc(Cl)ccc23)n2ncnc2n1`, the log K was 6.38 in experiment [1] and 6.79 in experiment [2].
